Earlier results as cited in patent US8802114B2, “Pharmaceutical compositions of iron for oral administration” (priority 2011, dated 2014).

Conditions: from MSDS; cited from earlier work

In the case of “Ferrous Gluconate [Ferrous Gluconate FCC/USP*]”, the “Aqueous solubility (MSDS)” value is given as 85 mg/mL (MSDS).
